{
  "sequences": {"note": "Sequences of proteins named here, by UniProt entry; tags and fusion partners are left off.", "UniProt P50750, whole entry": "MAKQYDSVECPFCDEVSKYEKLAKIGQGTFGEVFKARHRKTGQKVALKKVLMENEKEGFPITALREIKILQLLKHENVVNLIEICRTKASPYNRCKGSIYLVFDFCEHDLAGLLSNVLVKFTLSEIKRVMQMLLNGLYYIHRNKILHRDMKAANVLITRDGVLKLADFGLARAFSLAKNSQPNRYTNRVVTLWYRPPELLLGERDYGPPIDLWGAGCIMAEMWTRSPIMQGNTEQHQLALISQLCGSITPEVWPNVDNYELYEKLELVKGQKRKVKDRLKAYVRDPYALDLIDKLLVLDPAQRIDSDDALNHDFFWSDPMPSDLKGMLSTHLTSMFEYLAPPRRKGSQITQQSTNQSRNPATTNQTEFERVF"},
  "source": "paper PMC12586182",
  "about": "(Frontiers in Oncology, 2025)",
  "target": "T1, CDK9/CycT1 (Homo sapiens, UniProt P50750)",
  "T1 construct": "purchased Carna Biosciences",
  "assay": "Kinase panel profiling at 1 µmol/L (mobility shift assay, Carna)",
  "type": "biochemical",
  "conditions": "1 µmol/L of BTK inhibitor",
  "data": [
    {"smiles": "C=CC(=O)N1CCC[C@@H](n2nc(-c3ccc(Oc4ccccc4)cc3)c3c(N)ncnc32)C1", "note": "[ibrutinib]", "values": [
      {"measurement": "Percentage inhibition of kinase enzyme activity", "result": 3.45, "unit": "%"}
    ]}
  ]
}
